In US10202345B2, “Substituted azaspiro(4.5)decane derivatives” (priority 2014, dated 2019):

Tested on: rats
Test: Analgesia in the tail flick (focal ray) test in rats, intravenous administration

SMILES: CN(C)C1(c2cccs2)CCC2(CCN(C(=O)CC3CC3)C2)CC1 (stereo not shown)
- Tail flick rat, i.v. ED50 rat [μg/kg]: 3.36 µg/kg
